Experimental data reported in US20260263413A1, “FORMULATIONS OF DIHYDROMYRICETIN AND A PERMEABILIZER” (priority 2019, published 2026).
Read-outs that look alike come from different tables or passages of the source.

Assays:
[1] = Pharmacokinetic (PK) data from oral administration of DHM in enteric capsules, with or without sodium caprate; format: in vivo, Sprague-Dawley rats; conditions: rat, relative to IV AUC of Example 1
[2] = Sprague-Dawley, rat, in vivo, po

- DHM Bioavailability (Fabs) ([1]; 70.6±2.7 mg/kg crystalline DHM, sodium caprate approx. 141.2 mg/kg (2:1), FIG. 3D): 51.7±10.0
- DHM Bioavailability (Fabs) ([1]; 75.5±2.0 mg/kg crystalline DHM, sodium caprate approx. 75.5 mg/kg (1:1), FIG. 3C): 32.4±3.1
- DHM Bioavailability (Fabs) ([1]; 92.6±3.0 mg/kg crystalline DHM, sodium caprate approx. 23.2 mg/kg (1:4), FIG. 3B): 20.4±3.6
- DHM Bioavailability (Fabs) [2]: 52.8±12.3
Structure (SMILES): O=C1c2c(O)cc(O)cc2O[C@H](c2cc(O)c(O)c(O)c2)[C@H]1O [DHM, dihydromyricetin]
